This is a selection; strong and weak results do not stand in their true shares. Some of these compounds have results that are not shown, active ones among them. Records with an inconclusive call do not appear. Activity calls are given as the source filed them. No stated cut-off is given here; in the data, active means binding response below about 49% or above about 150%; inconclusive means no clear call, values can overlap the other calls; inactive means in between.

Sequences of proteins named here, by UniProt entry; tags and fusion partners are left off.
UniProt P09471, whole entry: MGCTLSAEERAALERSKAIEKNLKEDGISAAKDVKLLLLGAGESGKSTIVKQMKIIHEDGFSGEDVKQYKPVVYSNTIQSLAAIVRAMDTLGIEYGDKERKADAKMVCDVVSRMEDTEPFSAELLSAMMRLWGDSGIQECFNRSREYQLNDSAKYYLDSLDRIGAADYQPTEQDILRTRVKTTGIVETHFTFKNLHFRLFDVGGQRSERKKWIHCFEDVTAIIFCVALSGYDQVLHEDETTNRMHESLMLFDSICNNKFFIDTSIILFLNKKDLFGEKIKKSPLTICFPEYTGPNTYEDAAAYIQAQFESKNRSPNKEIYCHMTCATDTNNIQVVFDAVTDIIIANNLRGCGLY

The experiment deals with Guanine nucleotide-binding protein G(o) subunit alpha (Homo sapiens) (UniProt P09471). As to the kind of experiment: RGS7-Galphao binding modulators, primary screen, biochemical, multiplexed bead flow cytometry (AID 1439).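 Further: fluorescent Galphao held in activated GDP-AlF4 state binding bead-coupled RGS7.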 The conditions noted are these: at 10 µM, actives lie on both sides.
Consider `O=C(NCC1(N2CCCCC2)CCCCC1)c1cc([N+](=O)[O-])ccc1Cl`, for which the binding response (% of control) is inactive: 104%. As for `CC(C)N1C(=O)CC2(CCN(CCOC(=O)C(O)(c3ccccc3)c3ccccc3)CC2)C1=O`, the binding response (% of control) is inactive: 102%. The result for `CN(C)C1CCCC1OC(=O)C(O)(c1ccccc1)c1ccccc1` (stereo not drawn) reads inactive: 101%. The result for `Cc1ccccc1C(=O)NCC1(N2CCCCC2)CCCCC1` reads inactive: 106%; that for `C=CCN1CCN(CCOC(=O)C(O)(c2ccccc2)c2ccccc2)CC1`, inactive: 103%. With `CCN1CCCC(OC(=O)C2(O)c3ccccc3C=Cc3ccccc32)C1` (stereo not drawn), the binding response (% of control) is inactive: 113%. The value for `O=C(OC1CN2CCC1CC2)C(CO)(c1ccccc1)c1ccccc1` (stereo not drawn) was inactive: 101%; that for `CN(C)c1cccc(C(=O)NCC2(N(C)C)CCCCC2)c1` was inactive: 105%.

These data come from PubChem BioAssay AID1439 (NMMLSC, 2008).
